On the set-up of data set [1]: species or system human. The settings on record: in vivo.
Data set [2] has as its system P450 enzymes, UGTs, SULTs, OATP1B1/1B3, OAT1/3, OCT2, MATE1/2-K, MDR1, BCRP. It is filed as in vitro ADME, human. The following applies: data pending publication elsewhere.
For data set [3] the following is noted: data pending publication elsewhere.
The subject of another data set is CYP3A4. The settings on record: hepatocytes.
For the next data set, the system named is CYP1A2. The settings on record: hepatocytes.
For data set [4] the following is noted: XueBiJing compounds; cited from earlier work.
For data set [5] the following is noted: XueBiJing compounds, cited from earlier work.
The conditions of data set [6]: cited from earlier work.
The test system of data set [7] is P450 enzymes, UGTs, SULTs, OATP1B1/1B3, OAT1/3, OCT2, MATE1/2-K, MDR1, BCRP. The following applies: cited from earlier work.
In a further data set the target is T1, UGT1A9 (Homo sapiens, UniProt O60656).
T1 sequence (O60656 26-530): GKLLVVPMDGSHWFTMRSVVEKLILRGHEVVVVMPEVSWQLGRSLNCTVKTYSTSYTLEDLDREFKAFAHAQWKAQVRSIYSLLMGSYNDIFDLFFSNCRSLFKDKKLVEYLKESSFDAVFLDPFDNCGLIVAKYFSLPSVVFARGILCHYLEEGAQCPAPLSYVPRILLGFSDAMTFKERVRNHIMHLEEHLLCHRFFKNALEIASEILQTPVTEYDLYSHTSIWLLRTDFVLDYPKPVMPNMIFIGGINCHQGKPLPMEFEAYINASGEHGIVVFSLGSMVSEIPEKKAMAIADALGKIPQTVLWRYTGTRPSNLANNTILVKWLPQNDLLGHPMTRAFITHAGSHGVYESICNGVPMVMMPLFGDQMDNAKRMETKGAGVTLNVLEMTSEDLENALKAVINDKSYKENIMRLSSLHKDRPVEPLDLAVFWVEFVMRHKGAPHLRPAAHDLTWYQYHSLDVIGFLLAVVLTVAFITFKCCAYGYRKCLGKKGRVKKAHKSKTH
The data set can be described thus: UGT1A9 inhibition by XueBiJing compounds, cDNA-expressed enzyme [4-MU→4-MUG]. It is filed as in vitro ADME. The settings on record: read-out: IC50, UGT1A9 [4-MU→4-MUG]; mean ± SD (n = 3).

Chains of the proteins cited; added tags and fusions are not shown.
UniProt P11712, whole entry: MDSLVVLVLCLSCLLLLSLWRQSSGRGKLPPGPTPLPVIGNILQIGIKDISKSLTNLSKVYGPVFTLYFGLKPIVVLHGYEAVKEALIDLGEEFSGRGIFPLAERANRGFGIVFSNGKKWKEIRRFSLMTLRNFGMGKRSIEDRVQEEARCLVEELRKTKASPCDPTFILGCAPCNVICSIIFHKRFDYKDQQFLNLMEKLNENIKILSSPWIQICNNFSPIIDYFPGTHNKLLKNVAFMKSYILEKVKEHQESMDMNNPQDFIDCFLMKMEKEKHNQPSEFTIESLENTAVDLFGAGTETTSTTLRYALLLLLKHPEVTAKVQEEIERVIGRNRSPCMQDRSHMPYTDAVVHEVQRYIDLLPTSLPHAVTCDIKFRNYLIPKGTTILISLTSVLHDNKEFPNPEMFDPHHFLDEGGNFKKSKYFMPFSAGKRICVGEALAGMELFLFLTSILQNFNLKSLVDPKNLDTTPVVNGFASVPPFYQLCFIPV

In a further data set the target is CYP2C9 (Homo sapiens, UniProt P11712). The data set can be described thus: CYP2C9 inhibition by XueBiJing compounds, cDNA-expressed enzyme [MFC→HFC]. It is filed as in vitro ADME. The settings on record: read-out: IC50, CYP2C9 [MFC→HFC]; mean ± SD (n = 3).
The mark [8] stands for this setting: human, XueBiJing 100 mL via 75-min intravenous infusion.

Read-outs that look alike come from different tables or passages of the source.

One may read the Cmax as the maximum level reached in the sampled fluid or tissue. Usually pKa stands for the pH at which an ionisable group is half protonated. The IC50 is the concentration needed to halve the response being measured.

As for Hydroxysafflor yellow A [X1], in [1] (human), the VSS is given as 0.34 L/kg, the “fu-p (unbound fraction in plasma)” value was 30% and the t1/2 is 4.0 h. The same substance returned a maximum concentration (Cmax) in data set [1] (human, iv) of 3800 nM. In [1], the “CLR/(GFR × fu-p)” value was “Renal excretion, GF-based, fe-U, 51% CLR/(GFR × fu-p), 1.2”; the Major elimination route entry is listed as “Renal excretion, GF-based, fe-U, 51% CLR/(GFR × fu-p), 1.2”; the “fe-U (fraction of dose excreted unchanged into urine)” value is given as “Renal excretion, GF-based, fe-U, 51% CLR/(GFR × fu-p), 1.2”. Moreover, in [2], the “Related metabolism and transport data (substrate status)” value is recorded as “Not the substrate of P450 enzymes, UGTs, SULTs, OATP1B1/1B3, OAT1/3, OCT2, MATE1/2-K, MDR1, or BCRP”. In addition, the Membrane permeability entry in data set [3] is given as “Poor”. In addition, in the data set on CYP3A4, the “EA-T/U ratio, CYP3A4” value was 2.1–4.9 and the “mRNA-T/U ratio, CYP3A4” value lay in the range of 4.0 to 9.6. Moreover, in the data set with CYP1A2, the “EA-T/U ratio (treated-cell/untreated-cell ratio of enzyme activity), CYP1A2” value is given as 2.1–4.9 and the “mRNA-T/U ratio, CYP1A2” value was in the range of 4.0 to 9.6.
Regarding oxypaeoniflorin [X3], the Membrane permeability result in [4] is “Poor”. Also, the pKa in data set [5] was 8.2. In addition, the “LogD(7.4)” value in data set [5] (pH 7.4) is given as −0.2. The “fu-p (unbound fraction in plasma)” value in data set [6] (human plasma) was 80%. In data set [6] (setting [8]), the Cmax was 600 nM, the VSS was 0.16 L/kg and the t1/2 is listed as 0.7 h. For the same substance, in data set [6] (human), the Major elimination route entry is reported as “Renal excretion, GF-based” and the “fe-U (fraction of dose excreted unchanged into urine)” value is reported as 84%. Also, the “Related metabolism and transport data (substrate status)” value in data set [7] was “Not the substrate of P450 enzymes, UGTs, SULTs, OATP1B1/1B3, OAT1/3, OCT2, MATE1/2-K, MDR1, or BCRP”. Also, the IC50 at UGT1A9 amounted to 74 ± 20 µM. In addition, the IC50 at CYP2C9 came to 93 ± 18 µM.

The values are drawn from publication PMC6804443 (Acta Pharmaceutica Sinica. B, 2019).
